From publication PMC4396990, “Targeting Vascular Endothelial Growth Factor Receptor 2 and Protein Kinase D1 Related Pathways by a Multiple Kinase Inhibitor in Angiogenesis and Inflammation Related Processes In Vitro” (PLoS ONE, 2015)

Target: T1, PKD1 (Homo sapiens, UniProt Q15139)
T1 construct: gene PRKD1
T1 sequence (Q15139 1-912): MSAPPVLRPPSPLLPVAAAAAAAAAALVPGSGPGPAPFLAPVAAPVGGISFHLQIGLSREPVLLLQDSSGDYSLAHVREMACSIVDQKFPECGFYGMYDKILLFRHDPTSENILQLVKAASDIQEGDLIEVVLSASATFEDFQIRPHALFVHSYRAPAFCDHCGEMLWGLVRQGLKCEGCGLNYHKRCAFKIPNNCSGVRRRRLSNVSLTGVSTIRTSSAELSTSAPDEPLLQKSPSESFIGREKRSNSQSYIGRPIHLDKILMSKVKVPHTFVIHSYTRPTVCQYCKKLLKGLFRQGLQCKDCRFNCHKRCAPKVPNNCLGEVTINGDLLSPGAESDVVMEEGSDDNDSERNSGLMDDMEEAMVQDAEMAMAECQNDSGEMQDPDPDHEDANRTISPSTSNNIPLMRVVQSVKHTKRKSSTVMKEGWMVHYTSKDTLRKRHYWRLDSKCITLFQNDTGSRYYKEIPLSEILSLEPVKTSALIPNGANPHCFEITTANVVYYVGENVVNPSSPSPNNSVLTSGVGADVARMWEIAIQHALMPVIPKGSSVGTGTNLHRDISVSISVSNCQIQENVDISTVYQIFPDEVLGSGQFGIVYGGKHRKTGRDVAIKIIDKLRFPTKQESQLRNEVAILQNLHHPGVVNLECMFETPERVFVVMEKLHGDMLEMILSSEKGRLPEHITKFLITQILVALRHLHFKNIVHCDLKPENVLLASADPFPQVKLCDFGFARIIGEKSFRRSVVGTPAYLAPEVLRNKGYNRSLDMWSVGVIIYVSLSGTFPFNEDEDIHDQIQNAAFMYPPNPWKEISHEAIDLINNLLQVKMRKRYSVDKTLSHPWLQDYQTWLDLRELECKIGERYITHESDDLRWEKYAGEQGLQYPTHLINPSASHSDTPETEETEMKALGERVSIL
Assay: recombinant kinase assay (IMAP fluorescence polarization, TAMRA-peptide)
Format: biochemical

In the case of kb-NB142-70 [reference compound], the IC50 is reported as 26 nM.
